Measured values from ChEMBL document CHEMBL5344469, “Pioneering Methods in Brain Optimization and Mental Health Treatment” (ACS Med Chem Lett, 2024).

Sequences of proteins named here, by UniProt entry; tags and fusion partners are left off.
UniProt P28223, whole entry: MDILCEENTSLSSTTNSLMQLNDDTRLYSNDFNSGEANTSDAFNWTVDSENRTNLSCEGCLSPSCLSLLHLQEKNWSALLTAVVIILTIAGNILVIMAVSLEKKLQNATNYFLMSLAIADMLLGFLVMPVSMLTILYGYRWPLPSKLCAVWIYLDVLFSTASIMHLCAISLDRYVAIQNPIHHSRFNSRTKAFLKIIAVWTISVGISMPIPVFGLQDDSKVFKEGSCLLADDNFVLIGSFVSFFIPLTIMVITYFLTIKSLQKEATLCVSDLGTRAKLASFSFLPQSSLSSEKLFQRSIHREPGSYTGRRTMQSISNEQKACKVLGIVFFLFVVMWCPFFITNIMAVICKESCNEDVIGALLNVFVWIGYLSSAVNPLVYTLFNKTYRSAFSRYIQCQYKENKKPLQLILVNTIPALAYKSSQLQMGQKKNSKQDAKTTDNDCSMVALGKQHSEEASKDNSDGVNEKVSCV

Target: 5-hydroxytryptamine receptor 2A (Homo sapiens, UniProt P28223)
Type: functional, cell-based, CHO-K1

In the case of `CNCCc1c[nH]c2cccc(O)c12`, the EC50 is reported as 2.4 nM.
